## Yeast mating assay 2: variants of the scFv Ab-95

Values reported by Engelhart et al. 2022, doi:10.1038/s41597-022-01779-4 (FLAb copy).

Target peptide (SARS-CoV-2 spike, HR2 region): PDVDLGDISGINAS

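The parent was found by panning a naive human phage display library on the peptide. Variants in AAYL52 differ from the parent at up to three CDR positions; double and triple changes were sampled at random. The assay is AlphaSeq: two haploid yeast populations carry antibody and antigen on their surface. Mating (16 h, 30 °C) was followed by selection of diploids and sequencing of their barcodes. Scores were corrected for input abundance and mapped to Kd with protein pairs of known affinity run in the same pool. Mating was done three times.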

Each scFv is VH, the linker GGGGSGGGGSGGGGS, VL, as in the parent Ab-95, and differs from it in the CDRs of the light chain only.
VH: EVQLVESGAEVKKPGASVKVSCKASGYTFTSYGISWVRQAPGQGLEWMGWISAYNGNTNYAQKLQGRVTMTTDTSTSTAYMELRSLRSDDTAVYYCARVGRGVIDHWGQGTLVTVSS
VL: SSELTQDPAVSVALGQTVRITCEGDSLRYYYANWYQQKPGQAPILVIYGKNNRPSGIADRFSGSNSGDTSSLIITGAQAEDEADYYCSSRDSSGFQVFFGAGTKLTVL

Variants are written as CDR1, CDR2 and CDR3 of the light chain (limits as in the source). Parent: EGDSLRYYYAN, GKNNRPS, SSRDSSGFQVF. Every variant below is changed at S26 of the VL (sequential numbering). Each Kd is an estimate from the mating assay, the geometric mean of the replicates in which the pair was seen; lower is stronger. Where no diploid with the target was found in any replicate, the entry reads "not detected": below detection, most likely a poor binder, though not proof of it. Parent in this assay: reference entry 200 nM, copy in this library 180 nM.

| CDR-L1 | CDR-L2 | CDR-L3 | apparent Kd | detected | signal with controls |
|---|---|---|---|---|---|
| HGDDLRYAYAN | GKNNRPS | SSRDSSGFQVF | 11 nM | 3 of 3 | 2 of 9 |
| EGDRLPGYYAN | GKNNRPS | SSRDSSGFQVF | 1.6 µM | 3 of 3 | 0 of 9 |
| EGDWLRYYYAN | GKNNRPS | SSRKSSGFSVF | 20 µM | 3 of 3 | 2 of 9 |
| EGDAARYYYAN | GKNNRPS | SSRDLSGFQVF | 8.7 µM | 2 of 3 | 2 of 9 |
| EGDELRYYYAN | GKNNEPS | SSRNSSGFQVF | 230 µM | 1 of 3 | 3 of 9 |
| EGDMVRYYYAC | GKNNRPS | SSRDSSGFQVF | 2.0 µM | 1 of 3 | 5 of 9 |
| EGDLIRYYYAN | GKNNRPS | SSRDWSGFQVF | 1.2 µM | 1 of 3 | 2 of 9 |
| HGCKLRYYYAN | GKNNRPS | SSRDSSGFQVF | 64 µM | 2 of 3 | 2 of 9 |
| EGDVLRYYYAN | GKNNRPS | SSRDSDGFQVF | 2.2 µM | 3 of 3 | 0 of 9 |
| EGDKLRVYYAN | GKANRPS | SSRDSSGFQVF | 30 µM | 2 of 3 | 3 of 9 |
| EGDNLRYYYHN | GKNNAPS | SSRDSSGFQVF | not detected | 0 of 3 | 1 of 9 |
| EGDLLRYYYAN | YKNNRPS | SSHDSSGFQVF | 19 µM | 1 of 3 | 5 of 9 |
| EGVVLRYYYAN | GKNNRPS | SSRDSSGFQVF | 530 nM | 3 of 3 | 4 of 9 |
| EGDHLRYYYAN | GKNNRPS | SSWDSSAFQVF | 450 nM | 3 of 3 | 1 of 9 |
| EGDVLRYYYAN | GKNNRPS | SSRKSSSFQVF | 20 µM | 3 of 3 | 3 of 9 |
| EGDQLRYYYAN | GKNNRPS | EERDSSGFQVF | not detected | 0 of 3 | 2 of 9 |
| EGDELRYYYAM | GKNNRPS | SSRDSSGFQVF | 830 nM | 1 of 3 | 1 of 9 |
| IGDMLRHYYAN | GKNNRPS | SSRDSSGFQVF | 1.3 µM | 3 of 3 | 2 of 9 |
| EGDILRYYYAW | GFNNRPS | SSRDSSGFQVF | not detected | 0 of 3 | 0 of 9 |
| EGDDLRYYYAN | GKNNRPS | SSRDSSYFQQF | 1.1 µM | 2 of 3 | 2 of 9 |
| EGDYLRYYYAN | GYGNRPS | SSRDSSGFQVF | 5.6 µM | 3 of 3 | 6 of 9 |
| EGDDLRYYYAN | GKNNRPS | VSRDSNGFQVF | 4.4 µM | 1 of 3 | 1 of 9 |
| EGKEFRYYYAN | GKNNRPS | SSRDSSGFQVF | 120 nM | 3 of 3 | 4 of 9 |
| EGDPLRYYYAN | GKPNRPS | CSRDSSGFQVF | 86 µM | 1 of 3 | 2 of 9 |
| EGDFGRYYYAN | GKNNRPS | SSRDSSGFQMF | 15 µM | 2 of 3 | 5 of 9 |
| EGDDLRYYYAN | CKNNRPS | SSFDSSGFQVF | 19 µM | 1 of 3 | 2 of 9 |
| EGDILRYYYAN | GKNNRPS | SSRDSQGFTVF | 2.4 µM | 2 of 3 | 2 of 9 |
| EEDPLRYYYAN | GKNNRPS | SSRDSSGFQVF | not detected | 0 of 3 | 2 of 9 |
| EGDILRYYYAN | GKANRPS | SSRSSSGFQVF | 23 µM | 2 of 3 | 3 of 9 |
| EGDKLRYYYAN | GYNNRPS | SSRESSGFQVF | 13 µM | 3 of 3 | 5 of 9 |
| EGDYLRYYYAN | RKDNRPS | SSRDSSGFQVF | 5.2 µM | 1 of 3 | 1 of 9 |
| LGDILRYYYAN | GKNNRPS | SMRDSSGFQVF | 7.4 µM | 2 of 3 | 3 of 9 |
| EGDFLRYYYAN | GKNRRPS | SSRDNSGFQVF | 25 µM | 3 of 3 | 4 of 9 |
| EGDGTRYYPAN | GKNNRPS | SSRDSSGFQVF | 200 nM | 3 of 3 | 3 of 9 |
| EGDFLRTYYAN | GKNNRPS | SSRDSSGFQVG | 530 nM | 3 of 3 | 2 of 9 |
| EGDLLRYYMAN | GKNNRPS | SSRDSCGFQVF | not detected | 0 of 3 | 3 of 9 |
| EGDELRYYYAI | GKNNRPS | SSRDSSGFQHF | 5.0 µM | 2 of 3 | 3 of 9 |
| EGDQLRYYYAG | GFNNRPS | SSRDSSGFQVF | 120 nM | 3 of 3 | 3 of 9 |
| EEDALRYYYAN | GKNNRPS | SSRDSDGFQVF | 490 nM | 3 of 3 | 1 of 9 |
| EGDKLRYVTAN | GKNNRPS | SSRDSSGFQVF | 360 nM | 3 of 3 | 3 of 9 |
| EGGPLRYYYAN | GKNNRPS | SSRDSYGFQVF | 1.0 µM | 3 of 3 | 1 of 9 |
| FGDFLRYYYAN | GKNNRPS | SSRDSSGFQVF | 210 nM | 3 of 3 | 5 of 9 |
| EGDNLRYYYAN | GKNNRPS | SSTDMSGFQVF | 4.9 µM | 3 of 3 | 4 of 9 |
| EGDMLRFYYAN | GKNNRPS | SSRDSPGFQVF | 4.8 µM | 2 of 3 | 1 of 9 |
| EGDELRYAYTN | GKNNRPS | SSRDSSGFQVF | 63 nM | 3 of 3 | 2 of 9 |
| EGDYLREYYAN | GKNNRPS | FSRDSSGFQVF | 8.0 µM | 3 of 3 | 4 of 9 |
| EGDELRYYYAN | GWNNRPS | SSRDSSGFQVF | 5.0 µM | 3 of 3 | 3 of 9 |
| EGDFLRVYYAN | MKNNRPS | SSRDSSGFQVF | not detected | 0 of 3 | 1 of 9 |
| EGDALRYYYAN | GANNRPS | SDRDSSGFQVF | 97 nM | 3 of 3 | 4 of 9 |
| EGDILRYPYAN | GKNGRPS | SSRDSSGFQVF | 630 nM | 3 of 3 | 0 of 9 |
| EGDALTYYYAN | GKNNRPV | SSRDSSGFQVF | 630 nM | 3 of 3 | 4 of 9 |
| EGDQLRYYYAN | GKNNRPS | SSRDSSGFQPF | 9.1 µM | 2 of 3 | 3 of 9 |
| EGDQLRYYYAN | GKNNRPS | SSRDSSFFQVF | 4.8 µM | 3 of 3 | 4 of 9 |
| EGDHRRYYYAN | GKNNRPS | SSRDWSGFQVF | not detected | 0 of 3 | 3 of 9 |
| EGDVLRYYYAN | GANNRPS | SSRDSSGTQVF | 1.8 µM | 1 of 3 | 5 of 9 |
| EGDTLRYYYAN | GKNNRPS | SYRDSSGFQNF | 640 nM | 3 of 3 | 1 of 9 |
| YGDFLRYYYAN | GKNNRPS | SSRMSSGFQVF | 1.8 µM | 1 of 3 | 2 of 9 |
| EGATLRYYYAN | GKNNRPS | SSRDSSGFQVF | 1.6 µM | 3 of 3 | 2 of 9 |
| ESDPLRYYYAN | GKNNRPS | SSRDSSGFSVF | not detected | 0 of 3 | 1 of 9 |
| EFDMLRYYYAN | GKDNRPS | SSRDSSGFQVF | 32 nM | 3 of 3 | 5 of 9 |
| EGDTLRYWYAN | GKNNSPS | SSRDSSGFQVF | 12 µM | 2 of 3 | 2 of 9 |
| EGDNLRYYYAN | GKYNRPS | SSNDSSGFQVF | 95 µM | 2 of 3 | 2 of 9 |
| EGDFLRYYYAN | GKSNRPS | SSRDSSGMQVF | 16 µM | 1 of 3 | 2 of 9 |
| EGDILRYYYAV | GKNNRPS | SMRDSSGFQVF | 31 µM | 1 of 3 | 1 of 9 |

For reference, 6 entries of the list once more:

{"CDR-L1": "EGDMVRYYYAC", "CDR-L2": "GKNNRPS", "CDR-L3": "SSRDSSGFQVF", "apparent Kd": "2.0 µM", "detected": "1 of 3", "signal with controls": "5 of 9"}
{"CDR-L1": "EGKEFRYYYAN", "CDR-L2": "GKNNRPS", "CDR-L3": "SSRDSSGFQVF", "apparent Kd": "120 nM", "detected": "3 of 3", "signal with controls": "4 of 9"}
{"CDR-L1": "EGDVLRYYYAN", "CDR-L2": "GANNRPS", "CDR-L3": "SSRDSSGTQVF", "apparent Kd": "1.8 µM", "detected": "1 of 3", "signal with controls": "5 of 9"}
{"CDR-L1": "EGDALTYYYAN", "CDR-L2": "GKNNRPV", "CDR-L3": "SSRDSSGFQVF", "apparent Kd": "630 nM", "detected": "3 of 3", "signal with controls": "4 of 9"}
{"CDR-L1": "EGDVLRYYYAN", "CDR-L2": "GKNNRPS", "CDR-L3": "SSRDSDGFQVF", "apparent Kd": "2.2 µM", "detected": "3 of 3", "signal with controls": "0 of 9"}
{"CDR-L1": "EGDELRYYYAN", "CDR-L2": "GKNNEPS", "CDR-L3": "SSRNSSGFQVF", "apparent Kd": "230 µM", "detected": "1 of 3", "signal with controls": "3 of 9"}

Empty control strains, which show no peptide, gave a signal in 28% of pairings with library AAYL52; the median was 8.2 µM and 95% of these signals were weaker than 800 nM. No background was subtracted. For each scFv, signals with the empty controls are counted beside the result.